Two substances from patent publication US20220265727A1 can be followed below.

The target of the test is human CTLA-4 on CTLA-4 effector cells (Jurkat T cells) (human) (UniProt P16410). Put plainly: cell-based or functional assay. Details: unit not given beside the values.

Take “ipilimumab biosimilar, positive control (Yervoy, Bristol-Myers Squibb SA) (antibody)”: the EC50, CTLA-4 Blockade Bioassay (luciferase activity) amounted to 1.57.
Turning to “myoblast-produced anti-CTLA4 IgG (ipilimumab variable regions in a human IgG1 heavy chain and human kappa light chain backbone) (antibody)”, the EC50, CTLA-4 Blockade Bioassay (luciferase activity) came to 1.52.
